Results: patent US9045445B2, “Glycine transporter-1 inhibitors, methods of making them, and uses thereof” (Albany Molecular Research, Inc., priority 2010, dated 2015)
This is a selection: effects in other tests are not listed, and their absence says nothing.

Protein sequences, listed by entry. Tags and fused reporters are not part of them.
UniProt Q9Y345, whole entry: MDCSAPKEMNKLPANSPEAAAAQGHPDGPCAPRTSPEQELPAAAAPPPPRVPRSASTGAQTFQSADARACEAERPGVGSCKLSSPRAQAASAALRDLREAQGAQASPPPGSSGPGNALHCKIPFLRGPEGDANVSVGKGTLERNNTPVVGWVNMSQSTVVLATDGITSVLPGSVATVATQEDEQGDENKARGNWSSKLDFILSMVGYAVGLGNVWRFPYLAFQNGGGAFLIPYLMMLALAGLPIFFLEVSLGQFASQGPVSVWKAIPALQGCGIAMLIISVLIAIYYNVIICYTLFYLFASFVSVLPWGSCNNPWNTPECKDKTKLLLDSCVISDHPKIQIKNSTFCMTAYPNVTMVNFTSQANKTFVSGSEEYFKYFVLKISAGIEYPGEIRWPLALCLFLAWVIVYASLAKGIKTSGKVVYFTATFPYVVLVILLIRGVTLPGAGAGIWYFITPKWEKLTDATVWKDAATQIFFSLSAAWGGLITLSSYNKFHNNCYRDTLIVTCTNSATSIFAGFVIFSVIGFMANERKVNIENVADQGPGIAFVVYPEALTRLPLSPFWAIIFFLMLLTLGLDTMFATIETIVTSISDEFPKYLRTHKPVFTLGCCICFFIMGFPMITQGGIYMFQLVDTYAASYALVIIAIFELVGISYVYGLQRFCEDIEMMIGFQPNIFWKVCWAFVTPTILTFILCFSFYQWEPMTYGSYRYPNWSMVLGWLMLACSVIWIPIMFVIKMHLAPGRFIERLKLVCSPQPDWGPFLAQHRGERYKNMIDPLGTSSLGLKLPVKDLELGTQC
UniProt P48067, whole entry: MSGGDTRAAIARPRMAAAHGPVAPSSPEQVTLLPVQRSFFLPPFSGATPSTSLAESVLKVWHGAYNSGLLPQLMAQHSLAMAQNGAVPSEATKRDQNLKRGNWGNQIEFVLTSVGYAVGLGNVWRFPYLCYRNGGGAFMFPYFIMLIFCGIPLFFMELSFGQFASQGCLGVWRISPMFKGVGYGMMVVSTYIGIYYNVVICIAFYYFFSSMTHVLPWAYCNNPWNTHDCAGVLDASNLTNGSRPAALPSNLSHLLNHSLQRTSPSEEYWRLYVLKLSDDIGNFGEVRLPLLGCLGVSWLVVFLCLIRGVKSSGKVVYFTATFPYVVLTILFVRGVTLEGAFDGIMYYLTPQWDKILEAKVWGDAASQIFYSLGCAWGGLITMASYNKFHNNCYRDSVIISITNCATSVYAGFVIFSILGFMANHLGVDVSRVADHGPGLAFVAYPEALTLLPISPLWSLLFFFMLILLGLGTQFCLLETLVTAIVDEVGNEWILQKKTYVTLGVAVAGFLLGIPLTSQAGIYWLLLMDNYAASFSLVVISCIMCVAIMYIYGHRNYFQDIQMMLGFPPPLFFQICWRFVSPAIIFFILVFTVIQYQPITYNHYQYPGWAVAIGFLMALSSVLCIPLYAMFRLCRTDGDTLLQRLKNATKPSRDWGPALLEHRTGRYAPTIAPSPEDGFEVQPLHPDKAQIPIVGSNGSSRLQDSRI

Assays:
[1] = target: glycine transporter-2 (GlyT-2) (Homo sapiens, UniProt Q9Y345); assay: [14C]glycine uptake assay in HEK-GlyT-2 transfected cells; assay type: cell-based; conditions: read-out: GlyT-2 IC50, HEK-GlyT-2 cells
[2] = target: glycine transporter-1 (GlyT-1) (Homo sapiens, UniProt P48067); assay: [14C]glycine uptake assay in JAR cells endogenously expressing GlyT-1 (scintillation proximity); conditions: read-out: GlyT-1 IC50, [14C]glycine 5 μM, 3 hour incubation

4-Chloro-N-((1-(4- (propylsulfonyl)piperazin- 1-yl)cyclohexyl)methyl) benzamide Hydrochloride
IC50 [1]: > 75000 nM
IC50 [2]: 175 nM
